{
  "source": "patent US20060067886A1",
  "about": "“Gastrin receptor-avid peptide conjugates” (priority 1997, published 2006)",
  "assay": "Biodistribution of radiometal-DOTA-BBN conjugates in CF1 normal mice",
  "settings": "1 hour post-injection",
  "data": [
    {"smiles": "CSCC[C@H](NC(=O)[C@H](CC(C)C)NC(=O)[C@H](Cc1cnc[nH]1)NC(=O)CNC(=O)[C@@H](NC(=O)[C@H](C)NC(=O)[C@H](Cc1c[nH]c2ccccc12)NC(=O)[C@H](CCC(N)=O)NC(=O)CCCCCCCNC(=O)CN1CCN(CC(=O)O)CCN(CC(=O)O)CCN(CC(=O)O)CC1)C(C)C)C(N)=O", "values": [
      {"measurement": "Avg % ID/gm, Spleen", "value": "1.51 ± 0.41", "unit": "% ID/gm"},
      {"measurement": "Avg % ID/gm, Stomach", "value": "1.02 ± 0.26", "unit": "% ID/gm"}
    ]}
  ]
}
